# According to ChEMBL document CHEMBL3297660, “Combination of cyclohexane and piperazine based κ-opioid receptor agonists: Synthesis and pharmacological evaluation of trans,trans-configured perhydroquinoxalines” (Bioorg Med Chem, 2014):
# Protein sequences, listed by entry. Tags and fused reporters are not part of them.
# UniProt Q60492, whole entry: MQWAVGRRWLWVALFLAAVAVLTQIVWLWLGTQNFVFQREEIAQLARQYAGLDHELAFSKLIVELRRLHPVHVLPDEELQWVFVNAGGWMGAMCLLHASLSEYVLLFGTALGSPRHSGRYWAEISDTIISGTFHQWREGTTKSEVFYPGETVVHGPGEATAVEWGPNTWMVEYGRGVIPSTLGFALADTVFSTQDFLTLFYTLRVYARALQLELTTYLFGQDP
# Assays:
# [1] = molecular target: Sigma non-opioid intracellular receptor 1 (Cavia porcellus) (UniProt Q60492); assay: Displacement of [3H]-(+)-Pentazocine from sigma1 receptor in guinea pig brain membrane at 1 uM; format: cell membranes
# Rattus norvegicus = organism: Rattus norvegicus; assay: Displacement of [3H]-DTG from sigma2 receptor in rat liver membrane at 1 uM; format: cell membranes
# Sus scrofa = organism: Sus scrofa; assay: Displacement of [3H]-(+)-MK-801 from NMDA receptor in pig brain at 1 uM by scintillation counting analysis
Activity [1],SMILES,Activity (Rattus norvegicus),Activity (Sus scrofa)
inactive,O=C1N[C@@H]2[C@@H](NCc3ccccc3)CCC[C@H]2N(Cc2ccccc2)C1=O (mixture of isomers),inactive,inactive
inactive,c1ccc(CN2CCN[C@H]3[C@H]2CCC[C@@H]3N2CCCC2)cc1 (mixture of isomers),inactive,inactive
inactive,N[C@H]1CCC[C@@H]2[C@@H]1NC(=O)C(=O)N2Cc1ccccc1 (racemic),inactive,inactive
inactive,O=C1N[C@H]2[C@@H](CCC[C@@H]2N2CCCC2)N(Cc2ccccc2)C1=O (relative stereo),inactive,inactive

# Continued, compound first:
SMILES,Activity [1],Activity (Rattus norvegicus),Activity (Sus scrofa)
COC(=O)N1CCN(C(=O)Cc2ccc(Cl)c(Cl)c2)[C@H]2[C@H]1CCC[C@@H]2N1CCCC1 (racemic),–,inactive,inactive
O=C(Cc1ccc(Cl)c(Cl)c1)N1CCN(Cc2ccccc2)[C@@H]2CCC[C@H](N3CCCC3)[C@H]21 (racemic),–,inactive,inactive
O=C(Cc1ccccc1)N1CCN(Cc2ccccc2)[C@@H]2CCC[C@H](N3CCCC3)[C@H]21 (racemic),–,inactive,inactive
O=C(Cc1ccccc1)N1CCN[C@@H]2CCC[C@H](N3CCCC3)[C@H]21 (racemic),–,inactive,inactive
O=C1N[C@@H]2[C@@H](NCc3ccc(Cl)cc3)CCC[C@H]2N(Cc2ccc(Cl)cc2)C1=O (racemic),–,inactive,inactive
O=C(Cc1ccc(Cl)c(Cl)c1)N1CCN[C@@H]2CCC[C@H](N3CCCC3)[C@H]21 (relative stereo),–,inactive,inactive

# Activity calls are given as the source filed them. The rule behind the calls is not given here.
